According to PubChem BioAssay AID624288 (National Center for Advancing Translational Sciences (NCATS), 2012):
Only a part is listed here, and it is no random draw. Results filed as inconclusive are left out. Active and inactive are the calls of the source. Calls follow the shape of the full dose curve; cell line not stated here.

test: qHTS for Antagonists of gsp, the Etiologic Mutation Responsible for Fibrous Dysplasia/McCune-Albright Syndrome: qHTS; conditions: gsp-mutant cells, cAMP HTRF, 30 min; at 76.9 µM (top of the series); also: nearly all actives have a fitted effect of over 65% in size
% is scaled to controls: 0 for no effect and ±100 for the full control effect.

| SMILES | activity change, negative = inhibition |
| --- | --- |
| CCC(=O)N(c1ccccc1)C1(COC)CCN(CCc2cccs2)CC1 | inactive: 1.18% |
| CCC(=O)N(c1ccccc1)C1(COC)CCN(CCn2nnn(CC)c2=O)CC1 | inactive: 1.86% |
